Assay results reported in patent US7504411B2, “2,3,6-Trisubstituted-4-pyrimidone derivatives” (Mitsubishi Tanabe Pharma Corporation, priority 2003, dated 2009).

Protein sequences, listed by entry. Tags and fused reporters are not part of them. Residues count along the entry.
UniProt A0A3Q1MT31, 1-419: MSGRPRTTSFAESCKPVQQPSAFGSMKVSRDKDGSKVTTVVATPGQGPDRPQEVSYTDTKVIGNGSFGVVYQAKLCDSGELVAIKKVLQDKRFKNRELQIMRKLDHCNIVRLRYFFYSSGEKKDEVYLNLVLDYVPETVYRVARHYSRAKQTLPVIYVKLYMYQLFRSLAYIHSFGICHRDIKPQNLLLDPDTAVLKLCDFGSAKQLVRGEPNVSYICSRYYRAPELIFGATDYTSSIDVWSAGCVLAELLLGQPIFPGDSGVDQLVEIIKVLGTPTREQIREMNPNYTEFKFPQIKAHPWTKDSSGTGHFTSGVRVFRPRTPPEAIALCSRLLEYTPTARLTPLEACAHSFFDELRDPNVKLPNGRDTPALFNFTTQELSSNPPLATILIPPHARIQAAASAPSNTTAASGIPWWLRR

Target: bovine cerebral TPK1 (Bos taurus, UniProt A0A3Q1MT31)
Experiment: Inhibitory activity against P-GS1 phosphorylation by bovine cerebral TPK1
Details: 41.7 μM [γ-32P]ATP, 25° C., 2 hours
Description: Inhibitory Activity of the Medicament of the Present Invention against P-GS1 Phosphorylation by Bovine Cerebral TPK1
A mixture containing 100 mM MES-sodium hydroxide (pH 6.5), 1 mM magnesium acetate, 0.5 mM EGTA, 5 mM β-mercaptoethanol, 0.02% Tween 20, 10% glycerol, 12 μg/ml P-GS1, 41.7 μM [γ-^32P] ATP (68 kBq/ml), bovine cerebral TPK1 and a compound shown in Table (a final mixture contained 1.7% DMSO deriving from a solution of a test compound prepared in the presence of 10% DMSO) was used as a reaction system. The phosphorylation was started by adding ATP, and the reaction was conducted at 25° C. for 2 hours, and then stopped by adding 21% perchloric acid on ice cooling. The reaction mixture was centrifuged at 12,000 rpm for 5 minutes and adsorbed on P81 paper (Whatmann), and then the paper was washed four times with 75 mM phosphoric acid, three times with water and once with acetone. The paper was dried, and the residual radioactivity was measured using a liquid scintillation counter.

pIC50: 7.85
SMILES: Cn1c(N2CCC(c3ccc(Br)cc3)CC2)nc(-c2ccncn2)cc1=O

pIC50: −log10 of the molar value.
